# In publication PMC3586484, “Comparative Cytochrome P450 In Vitro Inhibition by Atypical Antipsychotic Drugs” (ISRN Pharmacology, 2013):
# The chains behind the UniProt entries cited, without tags or fusion partners.
# UniProt P10635, whole entry: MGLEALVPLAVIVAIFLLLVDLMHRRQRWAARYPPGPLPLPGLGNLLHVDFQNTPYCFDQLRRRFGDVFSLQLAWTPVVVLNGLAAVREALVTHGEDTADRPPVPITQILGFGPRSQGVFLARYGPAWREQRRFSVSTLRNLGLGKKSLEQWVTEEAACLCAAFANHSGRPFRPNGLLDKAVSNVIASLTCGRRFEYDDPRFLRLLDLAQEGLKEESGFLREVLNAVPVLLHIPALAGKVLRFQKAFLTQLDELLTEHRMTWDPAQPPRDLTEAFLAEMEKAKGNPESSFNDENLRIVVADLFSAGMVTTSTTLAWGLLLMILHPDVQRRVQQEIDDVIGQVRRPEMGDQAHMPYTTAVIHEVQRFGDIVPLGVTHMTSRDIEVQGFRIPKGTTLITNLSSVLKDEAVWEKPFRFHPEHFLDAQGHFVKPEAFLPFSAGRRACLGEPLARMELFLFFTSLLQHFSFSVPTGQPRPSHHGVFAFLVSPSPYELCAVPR
# Tests used:
# [1] = system: CYP3A; experiment: Inhibition of CYP3A-mediated midazolam 4′-hydroxylation in human liver microsomes; format: in vitro ADME
# Procedure: (§1) The mass spectrometer was run in the positive ion mode. Nitrogen as the drying gas was supplied at a flow of 10 L/minutes and at a temperature of 350°C.
# [2] = system: CYP3A; experiment: Inhibition of CYP3A-mediated midazolam 1′-hydroxylation in human liver microsomes; format: in vitro ADME
# Procedure: as §1
# [3] = reported therapeutic concentrations; ref Kirchherr and Kühn-Velten [18]; cited from earlier work
# [4] = molecular target: CYP2D6 (Homo sapiens, UniProt P10635); conditions: cited from earlier work
# [5] = relative to the mean of reported therapeutic concentrations
Compound,"Ki at 30 min ([1]; human, human liver microsomes, pH 7.5, probe midazolam (4′-hydroxylation), 10 μM, estimate obtained from IC50 as described in [17] (IC50-to-Ki tool), read-out: K i, CYP3A (4′-hydroxylation))","inhibition at 30 min ([1]; pH 7.5, probe midazolam (4′-hydroxylation), 10 μM, human liver microsomes, inhibitor 0.05 to 50 μM, read-out: I max (maximum inhibition), CYP3A (4′-hydroxylation))","IC50 at 30 min ([1]; pH 7.5, probe midazolam (4′-hydroxylation), human liver microsomes, 10 μM midazolam, 30 min 37°C)","Inhibitory potency ([inhibitor]/K i), CYP3A (4′-hydroxylation) [1, 5]","Ki at 30 min ([2]; human, human liver microsomes, pH 7.5, probe midazolam (1′-hydroxylation), 10 μM, estimate obtained from IC50 as described in [17] (IC50-to-Ki tool), read-out: K i, CYP3A (1-hydroxylation))","inhibition at 30 min ([2]; pH 7.5, probe midazolam (1′-hydroxylation), 10 μM, human liver microsomes, inhibitor 0.05 to 50 μM, read-out: I max (maximum inhibition), CYP3A (1-hydroxylation))","IC50 at 30 min ([2]; pH 7.5, probe midazolam (1′-hydroxylation), human liver microsomes, 10 μM midazolam, 30 min 37°C)","Inhibitory potency ([inhibitor]/K i), CYP3A (1-hydroxylation) [2, 5]",Therapeutic range [3],"Inhibition of CYP2D6 (in words, literature) [4]"
Cc1cc2c(s1)Nc1ccccc1N=C2N1CCN(C)CC1 [Olanzapine],21.1 µM,58.8%,42.2 µM,0.0073,7.3 µM,77.1%,14.7 µM,0.0212,–,–
Cc1nc2n(c(=O)c1CCN1CCC(c3noc4cc(F)ccc34)CC1)CCCC2 [Risperidone],–,–,–,–,–,–,–,–,0.04 to 0.15 µM,inhibitory effect
